Source: patent US10712349B2, “Circulating KIM-1 levels for detection of pathologies associated with injury to, or cancer of, the kidney” (THE BRIGHAM AND WOMEN'S HOSPITAL, INC., priority 2014, dated 2020)
Entries after “also recorded” stand apart in the source; their conditions may differ.

Tested on: Male Sprague-Dawley rats
Experiment: Gentamicin-induced nephrotoxicity in rats
Type: in vivo, rat
Conditions: day 11
Protocol: Male Sprague-Dawley rats weighing approximately 230-260 g were administrated 0.9% saline, 50 mg/kg gentamicin, or 200 mg/kg gentamicin intraperitoneally daily for 10 days. Rats were provided with free access to food and water and subjected to a 12-hour light and dark cycle. Rats were euthanized on day 11, and urine, plasma, and tissue samples were collected and analyzed. Tissue samples were fixed in 10% neutral buffered formalin or snap frozen. For histologic assessment, […] paraffin sections were prepared and stained with hematoxylin and eosin. The rat studies were undertaken in accordance with criteria outlined in a license granted under the Animals (Scientific Procedures) Act 1986 and approved by the University of Liverpool Animal Ethics Committee.
Microbead-based assays for rodent and human plasma and serum KIM-1 were developed, and extensive validation of the assays were performed using previously described approaches.^24 Urinary KIM-1 in rodents and humans was measured using microbead based assays as described previously.5,7,25,26 Capture antibodies (MAB 1817 for mouse, AF1750 for human [R&D Systems]), MARKE^25 antibody for rat (developed at Brigham and Women's Hospital) were conjugated with COOH polystyrene beads (Bio-Rad) with an amine coupling kit (Bio-Rad) using N-hydroxysuccinamide-1-ethyl-3-(3-dimethylaminopropyl) carbodiimide chemistry according to the manufacturer's protocol. Approximately 6000 beads in […] of sample diluent buffer (0.1M HEPES, 0.1M NaCl, 0.1% Tween-20, and 1% BSA; pH, 7.4; filter sterilized) were incubated with […] of sample or recombinant KIM-1 protein (1817-TM-050-CF for mice, 1750-TM for humans [R&D systems]), and KIM-FC for rats [developed at Brigham and Women's Hospital]) for 45 minutes. […]
The inventors also investigated whether plasma KIM-1 levels can serve as a biomarker in gentamicin-induced kidney injury in a different rodent species, rats. […] The extent of kidney damage was assessed by histo-pathologic analysis and changes in plasma creatinine. […]

Substance: gentamicin
- Plasma creatinine (50 mg/kg per day for 10 days): but not those treated with 50 mg/kg gentamicin
- Plasma creatinine (200 mg/kg per day for 10 days): significantly elevated
- plasma KIM-1 levels (10 daily doses of 50 or 200 mg/kg): elevated in a graded fashion; also recorded: significantly increased
